# How the values were obtained:
# [1] = tested on: rat cardiomyocytes (H9c2 cells); assay: SA-β-Gal staining, H2O2-induced senescence, pre-administration (Example 6); details: pre-administration 24 hours, then 400 µM H2O2 48 hours; FIG. 14
# Protocol: (§1) The workflow for SA-β-Gal staining of the cells is as follows: For the cells cultured in a 6-well plate, a cell culture solution was sucked away, the cells were washed 1 time with PBS, and 1 mL of an SA-β-Gal staining fixative was added for fixation at room temperature for 15 minutes. For other types of culture plates, the dosages of the fixative and subsequent solutions were used in operation with reference to this ratio. The cell fixative was sucked away, and the cells were washed 3 times with PBS, for 3 minutes each time. PBS was sucked away, and 1 mL of a staining working solution was added to each well. A method for formulating the staining working solution is as follows: A β-galactosidase staining solution A (10 µL), a β-galactosidase staining solution B (10 µL), a β-galactosidase staining solution C (930 µL), and an X-Gal solution (50 µL) were used. The cells were incubated overnight at 37°C, and the 6-well plate was sealed with a parafilm or a plastic wrap to prevent evaporation. Photographing was performed for record using a 20× objective under a microfluidic live cell real-time analysis system (Thermo), cell counting was performed using ImageJ software (National Institutes of Health, v 1.8.0), and ANOVA data analysis of multiple groups (mean ± SD) was performed using Graphpad Prism software (GraphPad Software, v 9.0.0).
# Culture conditions for rat cardiomyocytes (H9c2 cells) are as follows: The cells were cultured in a high-glucose DMEM culture medium containing 10% FBS and passaged and seeded when cultured to a density of 70% to 80% in a culture dish. The cells were washed 1 time with PBS, 0.25% trypsin was added for digestion for 2-3 minutes, and a high-glucose DMEM culture medium containing 10% FBS was added to terminate the digestion. The cells were pipetted to be detached, collected into a 15 mL centrifuge tube, and centrifuged at 1,000 rpm for 5 minutes. The supernatant was discarded, a new ECM culture medium was added, and the cells were pipetted uniformly, seeded into a 12-well or 24-well plate (at a density of 70% to 80%), and cultured in a 5% CO2 incubator at 37°C. After cell adherence, the next operation was performed.
# The anti-aging activity of drugs was detected in the H9c2 cells. In the H9c2 cells, stimulation was performed with 400 µM H2O2 for 48 hours for modeling. […] The pharmacological activity of DNJ or its derivatives DNJ-1, DNJ-3a, DNJ-3b, and DNJ-5a was detected in the method of pre-administration treatment for 24 hours.
# [2] = tested on: human umbilical vein endothelial cells (Huvec cells); assay: SA-β-Gal staining, H2O2-induced senescence, post-modeling administration (Example 3); details: 30 µM, added after stimulation with H2O2 for 24 hours; FIG. 11
# Protocol: (§2) Culture conditions for human umbilical vein endothelial cells (Huvec cells) are as follows: The Huvec cells were cultured in an ECM culture medium (SclenCell) and passaged and seeded when cultured to a density of 70% to 80% in a culture dish. The cells were washed 1 time with PBS, 0.25% trypsin (Gibco) was added for digestion for 2-3 minutes, and then an ECM culture medium was added to terminate the digestion. The cells were pipetted to be detached, collected into a 15 mL centrifuge tube, and centrifuged at 1,000 rpm for 5 minutes. The supernatant was discarded, a new ECM culture medium was added, and the cells were pipetted uniformly, seeded into a 12-well or 24-well plate (at a density of 70% to 80%), and cultured in a 5% CO2 incubator at 37°C. After cell adherence, the next operation was performed.
# (§3) Working concentrations of each drug and modeling agent: The concentrations of DNJ, DNJ-1, DNJ-3a, DNJ-3b, DNJ-5a, and NMN were all 30 µM; and the concentration of the modeling agent, H2O2, was 200 µM.
# as §1
# A basic method refers to Example 1, with differences in the administration method as follows: after inducing by H2O2 and constructing a human umbilical vein endothelial cell senescence model, treatment with DNJ or its derivatives was performed separately, and the anti-aging activity of drugs was detected.
# [3] = tested on: human umbilical vein endothelial cells (Huvec cells); assay: SA-β-Gal staining, H2O2-induced senescence, pre-administration (Example 1); details: 30 µM, pre-administration 24 hours, then 200 µM H2O2 24 hours; compared with the H2O2 group; FIG. 9
# Protocol: as §2
# Experimental operation and grouping are as follows: Experimental grouping: A control group (Control), a modeling group (H2O2), a DNJ drug group (H2O2 + DNJ, H2O2 + DNJ-1, H2O2 + DNJ-3a, H2O2 + DNJ-3b, H2O2 + DNJ-5a), and a positive control drug group (H2O2 + NMN) were used.
# as §3
# Experimental operation: After the supernatant was discarded, the cells were washed 3 times with PBS, drug solutions formulated in advance with a culture medium were added, and the blank group and the modeling group were replaced with a blank culture medium without drugs. After culturing for 24 hours, the supernatant was discarded, the cells were washed 3 times with PBS, a blank culture medium was added in the blank group, and a culture medium containing 200 µM H2O2 was added in the modeling group and the administration group. After treatment for 24 hours, the cells were subjected to SA-β-Gal staining operation using a cellular senescence β-galactosidase staining kit (Beyotime, C0602).
# as §1
# Compared with normal cells, senescent cells have the characteristic of high expression of SA-β-Gal. In the cellular senescence β-galactosidase staining kit using X-Gal as a substrate, a deep blue product is generated under the catalysis of senescence-specific β-galactosidase, thereby determining whether the cells are senescent.
smiles,measurement,setting,value
OC[C@H]1NC[C@H](O)[C@@H](O)[C@@H]1O,number of SA-β-Gal staining-positive H9c2 cells,[1],reduce
same,expression of SA-β-Gal and cell senescence,[2],significantly reduce
same,increase in the number of senescent cells (SA-β-Gal staining-positive cells),[3],significantly inhibited

# — patent EP4837574A1, “USE OF DNJ OR DERIVATIVE THEREOF IN PREPARING ANTI-SENESCENCE DRUG” (dated 2026)
